Test results as given in PMC8308678, “Treatment with Micafungin in a Preterm Neonate with an Invasive Candida parapsilosis Infection after a Severe Terlipressin-Induced Skin Necrosis” (Pathogens, 2021).

Conditions: 20 μg/kg/h continuous infusion through epicutaneo-cava catheter, after twenty days; perineum and thighs

## triglycyl-lysine vasopressin [terlipressin]
  Skin adverse effect: severe necrotic skin lesions
